Experiment [1] has as its system A431 cells. As to the kind of experiment: Caspase 3/7 activity, measurement of apoptosis. Format: cell-based. To be noted: 10 μM compared to 10 μM Tarceva.
In experiment [2] the target is p53/MDM2 binding (Homo sapiens (Human), UniProt Q00987). As to the kind of experiment: AlphaScreen measurement of p53/MDM2 interaction (truncated GST-MDM2 aa 1-150). For orientation: In Alpha technology, singlet oxygen from a donor bead excites a nearby acceptor bead.
The test system of experiment [3] is A431 cells. Nature of the experiment: A431 cell proliferation assay (MTT), alone and in combination with Tarceva. To be noted: for A431 Cell Proliferation CI Value: combination with Tarceva, CI <0.8 indicates synergy, Example 9, Table 7B. Format: cell-based.
Where [4] appears, read: read-out: Inhibition of p53/MDM2 Binding IC50 Value, Table 9.

Protein sequences, listed by entry. Tags and fused reporters are not part of them. Residues count along the entry.
UniProt Q00987, 1-150 limits assumed: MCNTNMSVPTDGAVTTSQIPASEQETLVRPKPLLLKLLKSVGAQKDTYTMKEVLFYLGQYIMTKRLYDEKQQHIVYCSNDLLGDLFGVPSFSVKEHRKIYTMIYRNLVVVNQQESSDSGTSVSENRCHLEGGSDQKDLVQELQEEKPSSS

Structures are written as SMILES. Like-named read-outs stand apart in the source and are kept apart here.

With `Cc1ccc2c(C)nc(Nc3nc(-c4ccccc4C)cc(=O)[nH]3)nc2c1`, the “Caspase 3/7 activity % Increase Relative to Tarceva” value in experiment [1] is given as 137%.

For `Oc1c(C(Nc2ccccn2)c2ccc(C(F)(F)F)cc2)ccc2cccnc12` (centres unmarked), the IC50 worked out at 6.2 µM in experiment [2] (setting [4]) and 1.1 µM in experiment [3] (read-out: A431 Cell Proliferation (IC50 Value), A431 cells, further studies, Example 9, Table 7A). The “A431 Cell Proliferation CI Value” in experiment [3] is on record as 0.65.

In the case of `Cc1ccc2ccc(C(Nc3ccccn3)c3sccc3C)c(O)c2n1` (centres unmarked), the IC50 in experiment [2] (setting [4]) came to 10 µM.

Consider `CCOc1ccc(C(Nc2cccnc2)c2cc(Cl)c3cccnc3c2O)cc1` (centres unmarked), for which the IC50 in experiment [2] (setting [4]) was 4.6 µM; in experiment [2] (read-out: p53/MDM2 IC50 Value, Table 7C), 4.6 µM. Further, the “A431 Cell Proliferation CI Value” in experiment [3] is on record as 0.65.

Consider `CCOc1ccc(C(Nc2cc(C)ccn2)c2ccc3cccnc3c2O)cc1OC` (centres unmarked), for which the IC50 in experiment [2] (setting [4]) is 3.5 µM.

Turning to `COc1ccc(C(Nc2cc(C)ccn2)c2ccc3cccnc3c2O)c(OC)c1OC` (centres unmarked), in experiment [2] (setting [4]), the IC50 came out at 6.3 µM.

`CCN1CCN(C(c2cccnc2)c2ccc3cccnc3c2O)CC1` (centres unmarked): the IC50 in experiment [2] (setting [4]) turned out to be 9.3 µM.

As for `C=CCOc1cccc(C(Nc2cc(C)ccn2)c2ccc3cccnc3c2O)c1` (centres unmarked), the IC50 in experiment [2] (setting [4]) was determined as 5.8 µM.

For `COc1cc(C(Nc2ccccn2)c2cc(Cl)c3cccnc3c2O)cc(I)c1O` (centres unmarked), the IC50 in experiment [2] (setting [4]) turned out to be 5.7 µM.

Turning to `C=CCOc1ccc(C(Nc2ccccn2)c2ccc3cccnc3c2O)cc1` (centres unmarked), the IC50 in experiment [2] (setting [4]) came out at 14 µM.

The values above are taken from patent US9023354B2, “Combination therapy with MDM2 and EFGR inhibitors” (priority 2010, dated 2015).
